The results in this text go back to ChEMBL document CHEMBL1135117, “Identification of potent and selective oxytocin antagonists. Part 2: further investigation of benzofuran derivatives” (Bioorg Med Chem Lett, 2002).

This test concerns the target T1, Oxytocin receptor (Rattus norvegicus, UniProt P70536).
T1 sequence (P70536 whole entry): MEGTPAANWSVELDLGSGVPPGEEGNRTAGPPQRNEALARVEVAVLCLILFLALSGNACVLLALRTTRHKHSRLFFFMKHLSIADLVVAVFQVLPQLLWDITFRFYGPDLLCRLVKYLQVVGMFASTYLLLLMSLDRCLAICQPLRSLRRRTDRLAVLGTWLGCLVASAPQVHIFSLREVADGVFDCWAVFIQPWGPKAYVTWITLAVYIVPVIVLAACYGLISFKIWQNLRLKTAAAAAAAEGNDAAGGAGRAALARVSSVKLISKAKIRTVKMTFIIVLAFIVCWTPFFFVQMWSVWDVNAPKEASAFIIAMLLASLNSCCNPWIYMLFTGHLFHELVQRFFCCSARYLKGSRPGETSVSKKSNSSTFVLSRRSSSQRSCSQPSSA
Nature of the test: Compound was tested for displacement of 3[H] oxytocin from rat OT receptor (in vitro). The format is functional.

In turn, `COc1cc(OC2CCN(C(C)=O)CC2)ccc1C(=O)N1CCC(N2C(=O)OCc3ccccc32)CC1` yielded an IC50 of 640 nM.
